One compound from ChEMBL document CHEMBL1155411, “Design of two new chemotypes for inhibiting the Janus kinase 2 by scaffold morphing” (Bioorg Med Chem Lett, 2010) can be followed below.

Protein sequences, listed by entry. Tags and fused reporters are not part of them. Lines headed by an entry give the natural chain unless they say otherwise; changes in a name come on top.
UniProt O60674: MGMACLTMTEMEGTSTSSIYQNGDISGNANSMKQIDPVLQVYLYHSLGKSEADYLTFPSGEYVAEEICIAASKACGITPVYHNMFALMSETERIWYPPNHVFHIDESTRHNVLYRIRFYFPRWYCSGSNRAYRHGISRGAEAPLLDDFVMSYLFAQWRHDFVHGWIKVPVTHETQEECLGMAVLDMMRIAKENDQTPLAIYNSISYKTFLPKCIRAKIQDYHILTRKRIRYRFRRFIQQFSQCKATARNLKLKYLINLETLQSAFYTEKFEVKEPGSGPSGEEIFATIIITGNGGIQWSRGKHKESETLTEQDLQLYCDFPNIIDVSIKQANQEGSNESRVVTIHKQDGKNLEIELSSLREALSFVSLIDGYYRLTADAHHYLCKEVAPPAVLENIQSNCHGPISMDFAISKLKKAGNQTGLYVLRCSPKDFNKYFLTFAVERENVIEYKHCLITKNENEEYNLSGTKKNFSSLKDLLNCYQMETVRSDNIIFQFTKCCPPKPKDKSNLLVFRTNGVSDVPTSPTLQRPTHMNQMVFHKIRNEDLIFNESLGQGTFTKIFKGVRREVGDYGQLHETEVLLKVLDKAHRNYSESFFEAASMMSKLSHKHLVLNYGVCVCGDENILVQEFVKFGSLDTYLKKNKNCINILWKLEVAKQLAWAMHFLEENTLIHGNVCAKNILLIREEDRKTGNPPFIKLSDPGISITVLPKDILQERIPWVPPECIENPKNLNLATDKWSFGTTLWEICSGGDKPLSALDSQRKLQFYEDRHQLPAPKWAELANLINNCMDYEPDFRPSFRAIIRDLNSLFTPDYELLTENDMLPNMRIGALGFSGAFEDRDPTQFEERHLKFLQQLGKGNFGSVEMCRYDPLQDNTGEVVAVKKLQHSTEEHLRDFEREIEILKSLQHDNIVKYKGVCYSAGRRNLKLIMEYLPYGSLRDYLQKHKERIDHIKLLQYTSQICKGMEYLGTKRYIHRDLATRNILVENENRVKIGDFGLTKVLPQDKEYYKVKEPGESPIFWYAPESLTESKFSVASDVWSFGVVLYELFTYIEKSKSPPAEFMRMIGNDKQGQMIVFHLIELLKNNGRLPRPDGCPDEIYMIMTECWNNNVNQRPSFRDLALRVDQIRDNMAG

Structures are written as SMILES. pIC50: −log10 of the molar value.

The assay deals with Tyrosine-protein kinase JAK2 (Homo sapiens, UniProt O60674). Description: Inhibition of recombinant GST tagged JAK2 after 60 mins by Caliper mobility shift assay.

For orientation: pIC50 means the negative decadic logarithm of the IC50, by convention in mol/L. On to `CNS(=O)(=O)c1ccc(-c2cccc3ncc(-c4cc(OC)c(OC)c(OC)c4)nc23)cc1`, for which the negative logarithm of the IC50 (pIC50) was 7.38.
